Bioassay records deposited in PubChem by Broad Institute.
Shown are actives, neighbours in structure and some others; about 2.8% of the full set was active somewhere.
PglD DTNB: blocks C. jejuni PglD acetyltransferase activity; purified PglD enzyme, DTNB colorimetric CoA detection; inhibition, % at 12.5 µM; actives 0.098% (n = 360,000); in the data active means inhibition above about 16%, passing the limit was not always enough; inconclusive means no clear call, values can overlap the other calls
C2C12 statin: suppression of simvastatin myotoxicity. C2C12 myotubes + simvastatin, ATP luminescence, 48 h; scaled: DMSO 0, geranylgeraniol control 100. rescue of ATP level, % at 7.49 µM. actives 0.78% (n = 330,000). AID 602340;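 active means mean ATP rescue above about 67%, or every replicate alone reaching that limit, limit read from the data, passing the limit was not always enough; inconclusive means no clear call, values can overlap the other calls; inactive means mean under the limit and some replicate under it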;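 further: myotubes were challenged with 10 µM simvastatin during compound exposure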
Yeast UUG start: alters start codon recognition fidelity in yeast; S. cerevisiae UUG-firefly luciferase reporter, luminescence/redox ratio; activity score, % at 18.7 µM; actives 0.13% (n = 350,000); AID 602363;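 active = replicate mean at a twofold rise or more, about +100% in these data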;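 also: firefly luciferase made from a UUG start codon reports start codon fidelity; reporter light over untreated wells divided by growth signal over untreated wells; some hits fall short of that in this replicate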
PGC1a acetyl inh: PGC1a acetylation modulation, inhibitor mode; U2OS PGC1a acetylation, AlphaScreen anti-acetyl-lysine; with virally co-expressed GCN5 acetyltransferase; AID 651687; actives 0.17% (n = 350,000); inhibition, % at 15.6 µM;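 active means every replicate shows inhibition of at least 40%; inconclusive means mean inhibition at least 40% but some replicate below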;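 further: 0% = neutral control wells and 100% = positive control wells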
esBAF inh: SWI/SNF esBAF complex inhibition; reporter increase, % at 12.5 µM; actives 2% (n = 350,000); AID 602393; mouse ES cells, Bmi1-luciferase knock-in reporter, 24 h; 100% = twice the neutral-well signal; in the data active means activation above about 40%; inconclusive means no clear call, values can overlap the other calls;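 further: 0% = median of the plate's neutral control wells and 100% = double that signal; a rise in the Bmi1 reporter signal indicates esBAF inhibition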
E-sel inducer: induces E-selectin expression in human endothelial cells; actives 0.37% (n = 260,000); P16581; activation, % at 7.58 µM; HUVEC E-selectin immunofluorescence imaging; normalized: neutral wells 0, TNF-alpha wells 100;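 active means mean E-selectin-positive cell signal at least 10% of the positive control, reached in at least 60% of replicates, without over 20% cell loss; inconclusive means no rule given, readout overlaps actives, possibly toxicity-flagged; inactive means the rest, including those meeting only one limit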
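Read-out: % PE-positive cells | Test system: HUVEC | Doses: One compound dose added by pin transfer | Buffer or medium: EGM-2 over gelatin coat | Signal: Immunofluorescence imaging | Benchmarks: TNF-alpha, DMSO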
* marks the source's active call; other numbers are inactive results; ? = inconclusive; · = no result.

cpd	SMILES	PglD DTNB	C2C12 statin	Yeast UUG start
1	CCS(=O)(=O)N1Cc2ccccc2CC1C(=O)Nc1nccs1 (configuration not stated)	·	-2	·
2	CCS(=O)(=O)N1Cc2ccccc2CC1C(=O)Nc1ccc(OC)c(OC)c1 (configuration not stated)	12	3	6
3	COc1ccc(S(=O)(=O)N2CCC(C(=O)Nc3nccs3)CC2)cc1	-3	·	-19
4	COc1ccc(S(=O)(=O)N2Cc3ccccc3CC2C(=O)Nc2nccs2)cc1 (configuration not stated)	4	-1	-9
5	CCS(=O)(=O)N1Cc2ccccc2CC1C(=O)Nc1cccc(OC)c1 (configuration not stated)	4	12	-1
6	COc1ccc(S(=O)(=O)N2Cc3ccccc3CC2C(=O)Nc2nccs2)cc1OC (configuration not stated)	-7	·	-1
7	Cc1[nH]n(-c2ccccc2)c(=O)c1N=Nc1ccccc1	·	·	·
8	Cc1ccc(N=Nc2c(N)n(-c3ccccc3)[nH]c2=O)cc1	3	-16	-8
9	C=C1C(=O)[C@]23C[C@H]1CC[C@H]2[C@]1(C)[C@@H](OC(C)=O)CC[C@@](C)(C(=O)OC)[C@H]1C[C@@H]3OC(C)=O	7	-41	18
10	C=C1C(=O)[C@]23C[C@H]1CCC2[C@@]1(C)C(C[C@@H]3O)[C@](C)(C(=O)OC)CC[C@@H]1OC(C)=O (some centres not stated)	-2	-294	-3
11	CC1(C)CC(=O)c2sc(N3CCCCC3)nc2C1	·	13	·
12	CCN1C(=O)CC(Sc2ccccc2C(=O)O)C1=O (configuration not stated)	-7	159*	-3
13	CC(C)(O)C#Cc1cccc(-c2nc(C(=O)O)cc3c2[C@@H](CCO)N(S(=O)C(C)(C)C)C3)c1 (some centres not stated)	·	·	·
14	CCCC#Cc1ccc2c(c1)O[C@H](CN(C)Cc1cccnc1)[C@@H](C)CN([C@@H](C)CO)S2(=O)=O	2	-50	-9
15	Cn1ncc(N=Cc2ccccc2O)c1C(=O)Nc1ccccc1	2	118*	-6

cpd	PGC1a acetyl inh	esBAF inh	E-sel inducer
1	·	44*	0
2	-3	1	·
3	-1	·	0
4	5	50*	·
5	·	53*	0
6	-9	44*	·
7	·	·	-4
8	-3	42*	·
9	94*	-85	·
10	103*	-84	-1
11	10	51*	·
12	-3	-4	·
13	-1	·	0
14	-2	2	0
15	2	0	·

Record cards (already shown). Order of values: PglD DTNB	C2C12 statin	Yeast UUG start	PGC1a acetyl inh	esBAF inh	E-sel inducer
COc1ccc(S(=O)(=O)N2Cc3ccccc3CC2C(=O)Nc2nccs2)cc1 (configuration not stated) is listed with 4	-1	-9	5	50*	·
CCS(=O)(=O)N1Cc2ccccc2CC1C(=O)Nc1cccc(OC)c1 (configuration not stated) is listed with 4	12	-1	·	53*	0
CCS(=O)(=O)N1Cc2ccccc2CC1C(=O)Nc1ccc(OC)c(OC)c1 (configuration not stated) is listed with 12	3	6	-3	1	·
C=C1C(=O)[C@]23C[C@H]1CC[C@H]2[C@]1(C)[C@@H](OC(C)=O)CC[C@@](C)(C(=O)OC)[C@H]1C[C@@H]3OC(C)=O is listed with 7	-41	18	94*	-85	·

(listing goes on)
cpd	SMILES	PglD DTNB	C2C12 statin	Yeast UUG start
16	CC(=O)N(C)C[C@H]1Oc2ncc(C#CC(C)(C)O)cc2C(=O)N([C@H](C)CO)C[C@H]1C	0	-2	3
17	O=C(Oc1ccc(Cl)cc1)N1CCCCC1	0	-7	-13
18	O=C(Oc1ccc(Cl)cc1)N1CCOCC1	-1	-12	-6
19	O=C(Oc1ccc(-c2ccccc2)cc1)N1CCOCC1	-1	-36	-9
20	CC(Oc1ccccc1)C(=O)Nc1cccc(-c2nc3ccccc3[nH]2)c1 (configuration not stated)	3	-22	-17
21	Cc1ccc(N/N=C(\C#N)C(=N)N2CCCCCC2)cc1	·	·	·
22	COc1ccc(N/N=C(\C#N)C(=N)N2CCCCC2)cc1	·	-18	·
23	O=S(=O)(c1ccc(-c2ccccc2)cc1)N1CCN(Cc2ccc(OCCO)cc2)CC1	-3	·	-3
24	O=C(Oc1oc(-c2ccco2)nc1C=Nc1ccc(Cl)cc1)c1ccco1	-5	·	1
25	COc1ccc(N=Cc2nc(-c3ccco3)oc2O)cc1	-25	6	-23
26	COc1ccc(Oc2nccc(-c3ccccc3)c2C#N)cc1	-4	-22	16
27	COc1ccc(CNc2ccc(C)c(C)c2)cc1	·	·	·
28	Oc1ccc(Cl)cc1CNc1cnc2ccccc2c1	0	-5	-3
29	Cc1ccc(NCc2ccccc2O)cc1C	-3	-1	-6
30	CSc1ccc(CNc2ccc(C)c(C)c2)cc1	-2	11	-11

cpd	PGC1a acetyl inh	esBAF inh	E-sel inducer
16	-3	-6	0
17	1	50*	·
18	-10	16	·
19	-8	62*	·
20	-27	46*	·
21	6	·	7
22	5	65*	2
23	12	·	·
24	17	38	·
25	-6	63*	·
26	-3	55*	·
27	5	·	·
28	8	0	·
29	3	68*	·
30	4	59*	·

The list continues:
cpd	SMILES	PglD DTNB	C2C12 statin	Yeast UUG start
31	Cc1ccc(CNc2cccnc2)cc1	8	-3	-15
32	Oc1ccccc1CNc1cnc2ccccc2c1	5	26	-6
33	Oc1ccccc1CNc1ccc2c(c1)OCCO2	-1	3	-31
34	O=C(CCN1CCCCC1)NCC[C@@H]1CC[C@H](NS(=O)(=O)c2cccc(Cl)c2)[C@@H](CO)O1	·	12	·
35	CSc1ccc(CNc2ccc(C)cc2)cc1	0	9	-16
36	C[C@H]1CN([C@@H](C)CO)S(=O)(=O)c2ccc(/C=C/c3ccccc3)cc2O[C@@H]1CN(C)C(=O)c1ccncc1	1	8	-5
37	COCCNC(=O)c1cc(-c2ccc(OC)c(OC)c2)on1	3	31	-15
38	COCCNC(=O)c1cc(-c2ccc(Cl)c(Cl)c2)on1	1	-6	-16
39	O=C(c1cc(-c2cccc(Cl)c2)on1)N1CCOCC1	3	-3	-9
40	CC1CCN(C(=O)c2cc(-c3ccc(Cl)c(Cl)c3)on2)CC1	1	-1	-20
41	O=C(c1cc(-c2ccc(Cl)c(Cl)c2)on1)N1CCOCC1	3	-15	1
42	C[C@@H]1CN([C@@H](C)CO)C(=O)Cc2cc(NC(=O)Nc3cccc4ccccc34)ccc2O[C@H]1CN(C)Cc1ccc(Oc2ccccc2)cc1	-2	?	-6
43	COCCCNC(=O)C1CCN(C(=O)c2oc3cc4sc(N(C)C)nc4cc3c2C)CC1	-2	7	-18
44	CC1CC(C)CN(C(=O)c2nn(C)c3c2CS(=O)(=O)c2ccccc2-3)C1 (configuration not stated)	-2	-4	-11
45	Cc1cccc(NC(=O)Oc2ccc(Cl)c3cccnc23)c1	2	1	-10

cpd	PGC1a acetyl inh	esBAF inh	E-sel inducer
31	5	58*	0
32	-6	54*	·
33	0	-41	·
34	4	4	0
35	0	55*	·
36	-5	-4	0
37	-15	12	·
38	-2	52*	0
39	·	44*	·
40	5	28	·
41	-5	42*	·
42	-13	-1	·
43	2	49*	·
44	-9	-2	95*
45	9	51*	0

Further structures
cpd	SMILES	PglD DTNB	C2C12 statin	Yeast UUG start
46	CNC(=O)COc1ccc(Cl)c2cccnc12	-1	8	-16
47	O=C(O)C(=O)/C(=C\c1ccsc1)c1ccc2ccccc2n1	-2	16	-17
48	COC(=O)C[C@@H]1CC[C@H](NC(=O)Nc2ccc(C(F)(F)F)cc2)[C@H](CO)O1	2	0	-5
49	C[C@H]1CN([C@@H](C)CO)C(=O)Cc2cc(NC(=O)Cc3ccccc3)ccc2O[C@@H]1CN(C)Cc1ccc(C(=O)Nc2ccccc2N)cc1	·	·	·

cpd	PGC1a acetyl inh	esBAF inh	E-sel inducer
46	·	-8	2
47	·	56*	0
48	-6	9	0
49	1	·	-3
